Reference: patent US20060104902A1, “Method of preselection patients for anti-VEGF, anti-HIF-1 or anti-thioredoxin therapy” (priority 2004, published 2006)

Legend:
HT-29 tumor xenografts [1] = assay: DCE-MRI with Gd-BSA: tumor vascular permeability and vascular volume fraction; assay type: in vivo, SCID mice; settings: for vascular volume fraction VVf (%): HT-29, mean
HIF-1α and VEGF = settings: previous studies; cited from earlier work
A-549 tumor = assay: DCE-MRI with Gd-BSA: tumor vascular permeability and vascular volume fraction (negative control tumor)
HT-29 tumor xenografts [2] = assay: DW-MRI of tumor water diffusion (ADCw); settings: PX-478 125 mg/kg i.p.
[3] = tested on: HT-29 human colon cancer xenografts; assay: Antitumor study, tumor xenograft growth; settings: PX-478 80 mg/kg ip daily for 5 days
[4] = tested on: A-549 non small cell lung cancer xenografts; assay: Antitumor study, tumor xenograft growth; settings: PX-478 100 mg/kg ip daily for 5 days

## NC(Cc1ccc([N+]([O-])(CCCl)CCCl)cc1)C(=O)O (centres unmarked)
HT-29 tumor xenografts [1]; 2 h post-Tx
  vascular volume fraction VVf (%): 7.5%
HT-29 tumor xenografts [1]; 12 h post-Tx
  vascular volume fraction VVf (%): 5.7%
HT-29 tumor xenografts [1]; 24 hours post-treatment, PX-478 125 mg/kg i.p.
  mean reduction in permeability: 55.0%
HT-29 tumor xenografts [1]; 24 h post-Tx
  vascular volume fraction VVf (%): 6.6%
HT-29 tumor xenografts [1]; 48 hours, PX-478 125 mg/kg i.p., not significant
  change in permeability (return to control values): +3.9%
HT-29 tumor xenografts [1]; 48 h post-Tx
  vascular volume fraction VVf (%): 6.6%
HT-29 tumor xenografts [1]; about 12 hours after PX-478 125 mg/kg i.p.
  decrease in permeability: about 72.4%
HT-29 tumor xenografts [1]; any time point (2-48 h), PX-478 125 mg/kg i.p.
  vascular volume fraction of the tumor, control vs treated: not significantly modified
HT-29 tumor xenografts [1]; within 2 hours after PX-478 125 mg/kg i.p.
  mean reduction in tumor blood vessel permeability compared to control tumors: 73.3%
HIF-1α and VEGF
  HIF-1α and VEGF levels in HT-29 tumors, onset of decrease: decreased within two hours
  HIF-1α and VEGF levels in HT-29 tumors, recovery: returned to control values by 8 hours
A-549 tumor; 2 h post-Tx, A-549, mean
  vascular volume fraction VVf (%): 6.0%
A-549 tumor; two hours after PX-478 125 mg/kg i.p.
  change in vascular volume fraction: No significant change
HT-29 tumor xenografts [2]; 24 hours post-treatment, treated vs control
  increase in mean relative tumor ADCw: +94.5%
HT-29 tumor xenografts [2]; 36 hours post-treatment
  increase in mean relative tumor ADCw: +38.4%
HT-29 tumor xenografts [2]; 48 h post-treatment, non significant
  change in mean tumor ADCw: +2.5%
HT-29 tumor xenografts [2]; early time points (2 and 12 h)
  ADCw values, control vs treated groups: not significantly different
[3]
  calculated log cell kill: 1.6
  tumor growth delay: 16 days
[4]
  growth inhibition: no growth inhibition
